Test results: patent US10913888B2, “Nanotube mediation of degradative chemicals for oil-field application” (MOLECULAR REBAR DESIGN, LLC, priority 2016, dated 2021)

Test: Niacin association with carbon nanotubes by UV-vis absorption of the supernatant

- total amount of niacin absorbed by the carbon nanotubes (Example 8, no PVOH, 0.0578 grams nanotubes, 0.0134 grams niacin): 0.0043 grams
- maximum amount of niacin that can fit in the tubes (calculated from tube volume 0.093 cm^3 per gram and niacin density 1.473 g/cm^3): 0.137 grams
SMILES: O=C(O)c1cccnc1 [niacin]
